{"source": "patent US20070036775A1", "about": "“Method of modulating or examining Ku70 levels in cells” (priority 2001, published 2007)", "system": "Bax", "assay": "Subcellular localization / mitochondrial translocation of Bax (fractionation, Western blot, confocal)", "type": "cell-based", "procedure": "FIG. 6. Ku70 sequestered Bax from mitochondria. FIG. 6A: Subcellular localization of Bax and Ku70. HeLa cells (10^7 cells) were transfected with 10 μg pCMV-2B (Control, STS,) or pCMV-2B-Ku70 (STS+Ku70). One day following transfection, except in the control group (Control), cells were treated by 200 nM STS (STS). One day after STS-treatment, cells were collected and subcellular fractionation was performed as described in Experimental Procedure. The levels of Ku70 (Ku70) and Bax (Bax) in each fraction were analyzed by Western blotting as described in Experimental Procedure. FoF1 ATP synthase subunit α (F1α) and PCNA (PCNA) were used as markers for mitochondrial and nuclear fractions, respectively. HM stands for “Heavy Membrane” fraction containing mitochondria. FIG. 6B: Ku70 overexpression increased the capacity of Bax in the cytosol. HEK293T cells (10^7 cells) were transfected with 5.0 μg pcDNA3 and 10 μg pCMV-2B (Control), 5.0 μg pcDNA3-Bax and 10 μg pCMV-2B (Bax+Vector), or 5.0 μg pcDNA3-Bax and 10 μg pCMV-2B-Ku70 (Bax+Ku70). One day following transfection, cells were collected and subcellular fractionation and Western blot analyses of Bax and mitochondrial FoF1-ATP-synthase subunit F1α (F1α) were performed as described in Experimental Procedure. FIG. 6C: Caspase-independent disappearance of Ku70 during apoptosis. Hela cells (10^6 cells) were treated with 200 nM STS in the absence (STS) or presence of z-VAD-fmk (STS+z-VAD). One day following the treatment, cells were collected and fractionated as described in Experimental Procedure. Cytosol fractions (20 μg protein) were separated by SDS-PAGE and analyzed by Western blotting for Ku70 (anti-Ku70 monoclonal antibody, BD-Pharmingen) and β-Tubulin (anti-β-Tubulin monoclonal antibody, BD-Pharmingen) levels. […] MEFs derived from wild-type (Ku70+/+) or Ku70-knockout mice (Ku70−/−) were analyzed as described in FIG. 6A. […] MEFs derived from wild-type (Ku70+/+) or Ku70-deficient (Ku70−/−) mice were treated with STS (200 nM) and cells were analyzed at indicated various periods after treatment as described in FIG. 6A. […]"}
{"substance": "Ku70: human full length Ku70, 70 kDa subunit of Ku-complex (609 amino acids), expressed from pCMV-2B plasmid", "values": [{"measurement": "accumulation of Bax in mitochondrial fraction caused by overexpression of Bax", "setting": "HEK293T cells, Ku70 overexpression", "result": "suppressed the accumulation of Bax in mitochondrial fraction"}, {"measurement": "mitochondrial translocation of Bax induced by STS-treatment or UVC-irradiation", "setting": "HeLa cells 200 nM STS, HEK293T cells UVC 200 J/m^2", "result": "suppressed the mitochondrial translocation of Bax"}, {"measurement": "Bax levels in the nucleus", "setting": "Ku70-overexpression, STS- or UVC-treated cells", "result": "increased by Ku70-overexpression"}]}
